Measured values: article PMC2453115

By UniProt entry, the sequences of proteins in these tests, tags left out. Residues count along the entry.
UniProt P00797, 67-406 limits assumed: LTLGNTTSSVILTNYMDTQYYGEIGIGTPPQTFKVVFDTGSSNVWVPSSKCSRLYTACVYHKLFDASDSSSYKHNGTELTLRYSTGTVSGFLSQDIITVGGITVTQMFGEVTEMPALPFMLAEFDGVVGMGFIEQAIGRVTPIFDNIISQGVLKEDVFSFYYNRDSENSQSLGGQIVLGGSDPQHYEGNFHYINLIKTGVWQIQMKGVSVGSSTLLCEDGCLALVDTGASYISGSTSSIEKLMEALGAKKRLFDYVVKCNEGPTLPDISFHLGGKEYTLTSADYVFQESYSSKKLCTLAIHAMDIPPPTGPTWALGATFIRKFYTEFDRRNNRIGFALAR

Target: recombinant human renin (Homo sapiens, UniProt P00797)
Experiment: co-crystals diffracting at […] Å (structure not reported here); IC50 also given

CCCCNc1c(N(C)C[C@H](O)[C@@H](N)C[C@H](Cc2ccc(OC)c(OCCCOC)c2)C(C)C)c(=O)c1=O (single isomer, unassigned)
IC50: 700 nM
